Source: patent US7405314B2 (priority 2004, dated 2008)

Key:
[1] = tested on: human leukemia cell lines and leukemic cells obtained from patients with acute or chronic leukemia; test: Long-term (7 day) colony-forming assay, leukemic cells; conditions: semi-solid medium
HL60 cells = test: Cell cycle, propidium iodine staining (GMZ27); conditions: 24 and 48 hours
[2] = tested on: human acute myelocytic leukemia (AML) cell lines; test: 72 hour MTS assays, AML cell lines
HL60 AML cells = test: Induction of apoptosis by GMZ27
[3] = tested on: healthy donor peripheral blood mononuclear cells; test: Long-term colony forming assay, healthy donor cells (GMZ27)
NB4 APL cells = test: Maturation/differentiation of NB4 APL cells, CD11b (GMZ27); conditions: low doses, 48 hour incubation
leukemic cells = test: 72 hour MTS assay after pretreatment with BSO, DTT or NAC
[4] = tested on: panel of 60 tumor cell lines; test: NIH sulforhodamine B assay, panel of 60 tumor cell lines; assay type: cell-based, human; conditions: 48 hours

| Compound | anti-leukemic activity compared with arsenic trioxide [1] | effect on cell cycle progression (HL60 cells) | IC50 ([2]; different human AML cell lines) | activity compared with arsenic trioxide ([2]; human AML cell lines) | induction of apoptosis compared with ATO (HL60 AML cells) | apoptotic pathway (HL60 AML cells; flow cytometry and Western blotting) | toxicity to normal cells compared with ATO [3] | cell differentiation/maturation (CD11b maturation marker) (NB4 APL cells) | sensitivity of leukemic cells after pretreatment with DTT or NAC (leukemic cells) | sensitivity of leukemic cells after pretreatment with buthionine sulfoximine (BSO) (leukemic cells) | anticancer activity against tumor cell line panel [4] |
| --- | --- | --- | --- | --- | --- | --- | --- | --- | --- | --- | --- |
| CCC[As](CCC)SCC(O)CO (centres unmarked) | significantly higher activity than arsenic trioxide | no effect on the cell cycle progression | 560 to 860 nM | higher than the activity of arsenic trioxide | more potent in induction of apoptosis than ATO | activated the mitochondrial apoptotic pathway | less toxic to normal cells than ATO | partially induce cell differentiation/maturation | less sensitive | more sensitive | – |
| S-dimethylarsino-2-thiobenzoic acid | – | – | – | – | – | – | – | – | – | – | evidence of activity at low concentrations |
